# Experimental data from publication PMC7961380, “A Systematic Study of the In Vitro Pharmacokinetics and Estimated Human In Vivo Clearance of Indole and Indazole-3-Carboxamide Synthetic Cannabinoid Receptor Agonists Detected on the Illicit Drug Market” (Molecules, 2021).
# Assay: in vitro
# Settings: human, pooled human plasma, pH 7.4, PPB (%), equilibrium dialysis 5 h, 37 °C
smiles,measurement,value
"CC(=O)CC(c1ccccc1)c1c(O)c2ccccc2oc1=O (stereo not shown) [warfarin, reference compound]","fraction unbound at 5 h, 10 µg mL^−1",0.016
